Earlier results, collected in US12673014B2, “Inhibitors of glycosphingolipid synthesis and methods of use” (priority 2018, dated 2026).

Chains of the proteins cited; added tags and fusions are not shown. Lines headed by an entry give the natural chain unless they say otherwise; changes in a name come on top.
UniProt O88693: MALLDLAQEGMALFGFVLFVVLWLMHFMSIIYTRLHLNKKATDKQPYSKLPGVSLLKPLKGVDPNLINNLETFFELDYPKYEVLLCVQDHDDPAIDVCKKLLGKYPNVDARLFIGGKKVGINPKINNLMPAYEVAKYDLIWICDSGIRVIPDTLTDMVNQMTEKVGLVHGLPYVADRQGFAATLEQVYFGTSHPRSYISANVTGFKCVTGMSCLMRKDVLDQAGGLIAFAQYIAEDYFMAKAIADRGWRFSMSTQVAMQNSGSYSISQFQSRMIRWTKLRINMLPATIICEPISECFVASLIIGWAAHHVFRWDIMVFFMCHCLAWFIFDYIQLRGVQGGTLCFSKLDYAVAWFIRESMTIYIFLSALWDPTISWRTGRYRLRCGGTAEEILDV

Assays:
[1] = biological target: glucosylceramide synthase (Mus musculus, UniProt O88693); conditions: ApoE-/- mice, high fat and cholesterol diet; cited from earlier work
[2] = test system: lactosylceramide synthase; conditions: ApoE-/- mice, high fat and cholesterol diet; cited from earlier work

## CCCCCCCCCC(=O)N[C@H](CN1CCOCC1)[C@H](O)c1ccccc1 [D-PDMP, D-threo-1-phenyl-2-decanoylamino-3-morpholino-1-propanol]
[1]
  activity of glucosylceramide synthase in liver tissue: dose-dependently decreased
[2]
  activity of lactosylceramide synthase in liver tissue: dose-dependently decreased
